{"source": "patent US9119848B2", "about": "“Morphinan derivatives for the treatment of drug overdose” (Alkermes Pharma Ireland Limited, priority 2009, dated 2015)", "key": {"[1]": {"test_system": "remifentanil-induced miosis", "conditions": "for onset of blockade of pupil miosis induced by REMI: healthy non-dependent opioid experienced subjects"}, "[2]": {"test_system": "subjective effects of remifentanil challenge infusion", "conditions": "10 and 20 mg; p=0.31 vs saline"}}, "note": "Where two headings read alike, the source gives them in different places."}
{"smiles": "NC(=O)c1ccc2c(c1O)[C@]13CCN(CC4CC4)[C@H](C2)[C@]1(O)CCC(=O)C3", "note": "[Compound-1]", "values": [{"measurement": "duration of blockade of pupil miosis (blockade persisted)", "setting": "[1]; 10 and 20 mg, p=0.54 vs saline", "value": "at least 24 hours"}, {"measurement": "onset of blockade of pupil miosis induced by REMI", "setting": "[1]; Compound-1 10 mg", "value": "≤ 1", "unit": "h"}, {"measurement": "onset of blockade of pupil miosis induced by REMI", "setting": "[1]; Compound-1 20 mg", "value": "≤ 0.25", "unit": "h"}, {"measurement": "Compound-1 concentrations sufficient for full blockade", "setting": "[1]; blockade of REMI effects", "value": "greater than 15 ng/mL"}, {"measurement": "partial blockade of physiologic and subjective effects persisted", "setting": "[1]; post-dose, single dose 10 or 20 mg", "value": 4, "unit": "days"}, {"measurement": "duration of blockade of subjective effects of \"Drug Liking\"", "setting": "[2]", "value": "at least 48 hours"}]}
